Bioassay records (PubChem BioAssay)
Compounds with a hit are over-represented: about 0.92% of the library has one in this group of screens.
PKM2 activator = increases activity of human pyruvate kinase M2; AID 1631; purified PKM2, Kinase-Glo ATP luminescence, activation; response scale: 0% is enzyme alone, no compound; Potency, µM (highest dose often 57.5 µM), inactives show top-dose activation, hits mostly activators; 260,000 compounds, 0.34% hits; note: potency is the fitted concentration of half-maximal effect; % is set by controls: 0 for no effect and ±100 for the full control effect; nearly all actives have a fitted effect of over 55% in size
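hPK-M2, >95% pure; 0.1 mM ADP / 0.5 mM PEP final; imidazole pH7.2 buffer w/ 7 mM MgCl2, 50 mM KCl; 1 h RT; Kinase-Glo lum. Intermediate enzyme activity for dual inhibitor/activator qHTS.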
miR-21 reporter = miR-21 reporter, rising signal; Potency, µM (top dose mostly 38.3 µM), for the others: at the highest dose reporter change, positive = more light; 340,000 tested, under 10 active; HeLa miR-21 FLuc reporter, luciferase, 48 h; active = well fitted rising curve with a large enough effect; inconclusive = small, poorly fitted or top-dose-only effect; inactive = no such curve, though single readings can be large or run the other way;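 note: % of control where 0% means no effect; miR-21 action dims this reporter so a rising signal means less miR-21 action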
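HeLa cells endogenously expressing miR-21, stably carrying CMV-driven firefly luciferase with a downstream miR-21 binding site, 2000 cells/well. Titrations up to approximately 40 uM, 48 hours; luciferase luminescence read.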
RXFP1 ag = activates the human relaxin receptor RXFP1 | Q9HBX9 | HEK293T-RXFP1 cAMP TR-FRET, 30 min; response scale: percent of porcine relaxin response, buffer zero | Potency, µM (doses to about 57.5 µM), for the others: at the highest dose activation, usual class: activators | 370,000 compounds, 0.3% hits; note: potency is the fitted concentration of half-maximal effect; % is set by controls: 0 for no effect and ±100 for the full control effect; nearly all actives have a fitted effect of over 60% in size
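HEK293 cells stably expressing RXFP1, treated 30 min at 37C with compounds plus PDE4 inhibitor Ro 20174; cAMP measured by HTRF TR-FRET. Normalized to buffer and 29 nM porcine relaxin; EC50 by Hill fit.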
RXFP1 antagonist = blocks the human relaxin receptor RXFP1; Q9HBX9; HEK293-RXFP1, relaxin-stimulated cAMP HTRF, 30 min; hits give low values; activity change, negative = inhibition, % at 57.5 µM; 350,000 compounds, 0.59% hits;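 active = activity change of -60% or lower, but not beyond a set lower limit; inconclusive = change between -60% and -40%, or beyond the set limit; inactive = change above -40%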; note: % is set by controls: 0 for no effect and ±100 for the full control effect
Luc counter = blocks Kinase-Glo luciferase, a counter-screen artifact; Q27757; Kinase-Glo luciferase, ATP luminescence, 8 min; Potency, µM (top dose mostly 38.3 µM), without a hit: top-dose activity change, negative = inhibition, hits mostly inhibitors; 200,000 compounds, 0.28% hits; AID 1379; note: potency is the fitted concentration of half-maximal effect; % is set by controls: 0 for no effect and ±100 for the full control effect; nearly all actives have a fitted effect of over 60% in size
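Compound is pinned into ATP-containing buffer (10 uM ATP, imidazole pH 7.2, 7 mM MgCl2). Kinase-Glo luciferase reagent is then added. Light output is recorded following an 8-min room-temperature incubation.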
GALK inh = inhibitors of human galactokinase; AID 1868; Purified GALK, Kinase-Glo residual ATP luminescence; 270,000 compounds, 0.007% hits; Potency, µM (highest dose often 57.5 µM), for inactives: top-dose activity change, negative = inhibition, hits mostly inhibitors; P51570; note: potency is the fitted concentration of half-maximal effect; % is set by controls: 0 for no effect and ±100 for the full control effect
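Human GALK (5 nM) with 35 uM ATP and 100 uM galactose in 20 mM HEPES pH 8.0, 5 mM MgCl2, 60 mM NaCl, 1 mM DTT, 0.01% BSA. After 1 h at room temperature, leftover ATP was read by Kinase-Glo Plus luminescence.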
Active calls of the source: *; ? = inconclusive; . = no result; [ ] = another dose, or the depositor's remark. Unless noted, calls come from the whole dose curve; as a rule, active = well fitted curve in the direction sought with a large enough effect; inconclusive = small, poorly fitted or top-dose-only effect, or another doubt; inactive = no such curve, though single readings can be large; an effect the other way counts as inactive or inconclusive.

Start of the listing, in advance (2 entries):
SMILES	PKM2 activator	miR-21 reporter	RXFP1 ag	RXFP1 antagonist	Luc counter	GALK inh
Cc1c([N+](=O)[O-])c(C(=O)Nc2ccc3c(c2)OCCO3)nn1C	-29%	-44%	9%	-2	13µM*	5%
COc1ccc2c(c1)C(=O)[C@H](OC(=O)NS(=O)(=O)c1ccc(F)cc1)[C@@H](c1ccc(OC)c(Br)c1)O2	.	.	.	.	1%	.

All compounds of this part, previewed entries included:
SMILES	PKM2 activator	miR-21 reporter	RXFP1 ag	RXFP1 antagonist	Luc counter	GALK inh
Cc1c([N+](=O)[O-])c(C(=O)Nc2ccc3c(c2)OCCO3)nn1C	-29%	-44%	9%	-2	13µM*	5%
COc1ccc2c(c1)C(=O)[C@H](OC(=O)NS(=O)(=O)c1ccc(F)cc1)[C@@H](c1ccc(OC)c(Br)c1)O2	.	.	.	.	1%	.
CCc1sc(C(=O)Nc2ccc3c(c2)OCO3)cc1C	.	.	.	-63*	.	.
CCc1sc(C(=O)Nc2ccc(N3CCOCC3)cc2)cc1C	.	.	.	-8	.	.
Cc1ncoc1C(=O)Nc1ccc2c(c1)OCCO2	-46%	-24%	1%	21	?	7%
Cc1ccsc1C(=O)Nc1ccc2c(c1)OCCO2	-60%	-21%	1%	0	10µM*	7%
Cc1ccc(C(=O)Nc2ccc3c(c2)CCC3)o1	-41%	-33%	1%	-25	13µM*	0%
CNC(=O)c1c(I)c(NC(C)=O)c(I)c(C(=O)O)c1I	.	.	.	6	.	.
Cc1cc(C)c2c(CC(=O)Nc3ccc(S(=O)(=O)N4CCCCC4)cc3)coc2c1	.	12%	1%	-34	.	.
Cc1cccc(C)c1NC(=O)CN(CC(=O)O)CC(=O)O	.	.	.	-6	.	.
CC1CCN(C(=O)c2cc3c(ccc4ccccc43)o2)CC1	.	-31%	1%	-60*	.	-5%
NC(=O)CC(NC(=O)Cc1ccc(Br)cc1)c1ccc(NCCc2ccccc2F)c([N+](=O)[O-])c1 (stereo not drawn)	1.6µM*	0%	-30%	.	.	0%
Cc1nonc1C(=O)N/N=C/c1ccc(O)c(O)c1	-4%	-59%	-5%	-12	6.3µM*	4%
CCCC(=O)OCCNc1cc(Sc2nccn2C)c2nonc2c1[N+](=O)[O-]	?	?	10%	-81*	1%	1%
Cc1nnc(Sc2cc(NCCCO)c([N+](=O)[O-])c3nonc23)s1	27%	?	25%	-68*	2%	2%
CCC(=O)OCCNc1cc(Sc2nc3ccccc3s2)c2nonc2c1[N+](=O)[O-]	?	?	7%	-19	-4%	-1%
Cc1nnc(Sc2cc(NCCO)c([N+](=O)[O-])c3nonc23)s1	20%	?	20%	-82*	-2%	-2%
O=[N+]([O-])c1c(NCCCO)cc(Sc2nc3ccccc3s2)c2nonc12	-24%	8%	-1%	-73*	-4%	8%
CCCSc1cc(NCCOC(C)=O)c([N+](=O)[O-])c2nonc12	9%	-11%	6%	-5	5%	0%
COC(=O)C1=C(C)N(Cc2ccccc2)C(=NCc2ccco2)N[C@H]1c1ccc(Br)cc1	-1%	?	2%	.	.	.
O=C(CNC(=O)c1ccc(Cl)c([N+](=O)[O-])c1)OCN1C(=O)c2ccccc2C1=O	.	.	1%	-16	.	.
Cc1oc(=O)oc1COC(=O)[C@@H]1N2C(=O)[C@@H](NC(=O)[C@H](N)c3ccccc3)[C@H]2SC1(C)C	.	.	.	-13	.	.
COc1ccccc1OC(C)C(=O)N(Cc1ccco1)C1CCS(=O)(=O)C1 (stereo not drawn)	-1%	-1%	4%	8	.	.
COc1ccc2[nH]c3c(NCCC4=CCCCC4)ncnc3c2c1	-2%	5%	-1%	-71*	-2%	-3%
Cc1nn(CC(=O)Nc2ccc(N3CCOCC3)cc2)c(C)c1Cl	-9%	1%	-3%	-1	.	6%
COC(=O)N[C@@H](c1cccc(F)c1)C(C(C)=O)C(=O)OC (stereo partly drawn)	.	.	.	.	-4%	.
O=C(Nc1ccccc1)C1=C(O)CC(c2ccc(Cl)cc2)N2CCN=C12 (stereo not drawn)	18µM*	-14%	-3%	-36	-1%	-2%
CCOC(=O)c1cc(-c2ccccc2)n(CCCC(=O)Nc2ccc(CC)cc2)c1C	.	14%	-1%	-18	.	.
CCOC(=O)c1cc(-c2ccccc2)n(CCC(=O)Nc2ccc(C(F)(F)F)cc2)c1C	.	?	1%	-67*	.	.
O=C(CCCCCNc1nc(=S)[nH]c2ccccc12)NCCc1c[nH]c2ccccc12	-3%	0%	5%	.	1%	2%
O=C(CCCCCNc1nc(=S)[nH]c2ccccc12)NCCC1=CCCCC1	1%	0%	6%	-63*	-1%	12%
O=C(O)CCCCCNc1nc(=S)[nH]c2ccccc12	-4%	-5%	9%	-4	13%	0%
O=C(CCCCCNc1nc(=S)[nH]c2ccccc12)NCCc1ccc(Cl)cc1	-31%	3%	6%	-65*	-1%	13%
COC(=O)C1=C(C(=O)OC)[C@@H]2N(C)c3ccccc3[C@@]23C[C@@H](CO)N(C(=O)c2ccco2)C3=N1	-3%[11.5 µM]	.	.	.	-6%[7.66 µM]	.
C/C(N=NC(=[SH+])SCc1ccccc1)=C1\C=CC=CN1.[Cl][Cu]	.	.	.	.	0%[7.66 µM]	.
COc1cccc(CS(=O)(=O)c2nnnn2-c2ccc(F)cc2Br)c1	.	.	.	.	0%	.
O=S(=O)(NCCc1nnc2ccc(SCc3cccc(Cl)c3)nn12)c1ccccc1	.	-3%	3%	-20	.	.
Cc1ccc(C2C(C(=O)c3cccs3)=C(O)C(=O)N2c2nnc(C)s2)cc1 (stereo not drawn)	18%	-35%	20µM*	-1	2%	1%
CCOC(=O)C1CCCN(C(=O)c2cc(S(=O)(=O)N(C)C)ccc2N2CCCC2)C1 (stereo not drawn)	.	.	-1%	-71*	.	.
CN1/C(=C\C=O)C(C)(C)c2ccccc21	3%	-7%	2%	9	-3%	8%

Limited to GALK inh, RXFP1 antagonist and RXFP1 ag, for 2 of the compounds above:
Structure | GALK inh | RXFP1 antagonist | RXFP1 ag
O=C(CCCCCNc1nc(=S)[nH]c2ccccc12)NCCc1ccc(Cl)cc1 | 13% | -65* | 6%
COc1ccc2[nH]c3c(NCCC4=CCCCC4)ncnc3c2c1 | -3% | -71* | -1%

Following part
SMILES	PKM2 activator	miR-21 reporter	RXFP1 ag	RXFP1 antagonist	Luc counter	GALK inh
CN1\C(=C/C=C/C=C/C=[N+](C)C)C(C)(C)c2ccccc21	.	24%	22%	-6	11µM*	22%
CCCCCCCC(=O)[O-].CCCCCCCC(=O)[O-].[Zn+2]	.	.	.	-19	.	.
O=C(Nc1nncs1)c1cc2c(s1)CCC2	-11%	-39%	4%	0	-4%	13%
O=C(Nc1nccs1)c1cc2c(s1)CCCCC2	-59%	?	0%	1	7.1µM*	2%
O=C1C=CC(=O)c2c(O)c(N3CCN(CCOCCO)CC3)c(Br)c(O)c21	.	.	.	-105*	.	.
OCCOCCN1CCN(C2=Nc3ccccc3Sc3ccccc32)CC1	-3%	8%	2%	-13	0%[39.9 µM]	-1%
O=C(CCCSc1ccccc1)Nc1nc(-c2ccco2)c(-c2ccco2)s1	18µM*	-1%	1%	?	-2%	0%
Cc1ccc(C(=O)Nc2nc(-c3ccco3)c(-c3ccco3)s2)o1	.	.	-3%	-81*	.	.

Single values from the list:
OCCOCCN1CCN(C2=Nc3ccccc3Sc3ccccc32)CC1 – RXFP1 antagonist = -13
CCCCCCCC(=O)[O-].CCCCCCCC(=O)[O-].[Zn+2] – RXFP1 antagonist = -19
CN1\C(=C/C=C/C=C/C=[N+](C)C)C(C)(C)c2ccccc21 – miR-21 reporter = 24%
